Literature values, collected in patent US8551516B2, “Administration of non-oral androgenic steroids to women” (Actavis, Inc., priority 1999, dated 2013).

Chains of the proteins cited; added tags and fusions are not shown. Residues count along the entry.
UniProt P02768, 25-609: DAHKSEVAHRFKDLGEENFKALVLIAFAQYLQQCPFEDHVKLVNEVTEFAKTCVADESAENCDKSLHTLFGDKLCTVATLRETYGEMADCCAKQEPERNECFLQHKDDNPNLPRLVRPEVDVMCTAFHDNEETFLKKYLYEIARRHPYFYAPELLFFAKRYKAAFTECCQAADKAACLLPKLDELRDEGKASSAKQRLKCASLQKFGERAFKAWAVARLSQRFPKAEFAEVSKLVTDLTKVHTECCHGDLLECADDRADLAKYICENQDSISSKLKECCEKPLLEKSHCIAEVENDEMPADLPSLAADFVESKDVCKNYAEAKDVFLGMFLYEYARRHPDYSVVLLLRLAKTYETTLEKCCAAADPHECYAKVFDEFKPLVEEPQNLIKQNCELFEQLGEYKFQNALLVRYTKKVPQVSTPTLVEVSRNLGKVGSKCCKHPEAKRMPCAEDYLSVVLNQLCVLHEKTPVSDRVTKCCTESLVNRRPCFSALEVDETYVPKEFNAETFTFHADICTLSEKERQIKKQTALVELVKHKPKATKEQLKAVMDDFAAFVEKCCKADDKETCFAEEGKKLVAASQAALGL

Target: serum albumin (Homo sapiens, UniProt P02768)
Conditions: Vermeulen et al. 1999; cited from earlier work

## C[C@]12CC[C@H]3[C@@H](CCC4=CC(=O)CC[C@@]43C)[C@@H]1CC[C@@H]2O [testosterone, (17)-17-Hydroxyandrost-4-en-3-one]
  albumin-testosterone binding constant: 36000 L/mol
